MLL AF4-AF9 inh: inhibitors of AF4 peptide binding to AF9, primary screen, biochemical, AlphaScreen, biotin-AF4 peptide, FLAG-AF9, single point | inhibition, % at 10 µM | 350,000 tested, 0.47% active;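 active = every replicate reaching a set inhibition limit, whatever the replicate mean, cut at about 25% in these data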;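 note: 0% = plate neutral control median and 100% = total signal loss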
S100A4 MyoIIA: inhibitors of S100A4-myosin IIA peptide binding, primary screen, biochemical, fluorescence polarization, TAMRA-MyoIIA peptide; inhibition, % at 10.7 µM; Protein S100-A4 (Homo sapiens), P26447; 360,000 tested, 0.14% active;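 active = mean inhibition of at least 70% across replicates, with every replicate also reaching that level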
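Test system – S100A4 monomer (human) · Compound – single-point compound testing · Schedule – 5 min incubation before reading · Probe or stimulus – TAMRA-labelled myosin IIA heavy-chain peptide probe, 5 nM · Benchmarks – neutral control DMSO, positive control TFP · Medium – Calcium-containing HEPES buffer, pH 7.2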
E-sel inducer: E-selectin induction in HUVECs, primary screen, imaging, HUVEC, immunofluorescence imaging, single point. P16581. normalized: neutral wells 0, TNF-alpha wells 100. activation, % at 7.58 µM. 260,000 tested, 0.37% active. AID 686992, 2013;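 active = mean E-selectin-positive cell signal at least 10% of the positive control, reached in at least 60% of replicates, without over 20% cell loss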
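Test system – human umbilical vein endothelial cells (HUVEC), E-selectin induction · Input – 3,000 HUVEC seeded per well · Buffer or medium – EGM-2, gelatin · Compound dosing – single-point compound dose · Detection – immunofluorescence imaging · Measure – percent E-selectin-positive cells · Controls – TNF-alpha high, DMSO low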
ERAP1 HTS inh: human ERAP1 aminopeptidase inhibitors, primary screen, biochemical, single point, plate reader; Endoplasmic reticulum aminopeptidase 1 (Homo sapiens), Q9NZ08; inhibition, % at 10.7 µM; 340,000 tested, 0.15% active; AID 652197, 2013; recombinant ERAP1, Leu-AMC fluorescence, 60 min;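 active = mean replicate inhibition of at least 30%, or all replicates individually reaching that 30% level; inactive = mean below 30% and not every replicate reaching it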;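 note: 0% = neutral control wells and 100% = L-leucinethiol positive control wells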
UUG fidelity: modulators of yeast start codon fidelity, primary screen, whole organism, S. cerevisiae, single point, plate reader; S. cerevisiae UUG-firefly luciferase reporter, luminescence/redox ratio; activity score, % at 18.7 µM; 0.13% of 350,000 active; AID 602363, 2012;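 active = replicate mean at a twofold rise or more, about +100% in these data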;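 also: firefly luciferase made from a UUG start codon reports start codon fidelity; reporter light over untreated wells divided by growth signal over untreated wells; some hits fall short of that in this replicate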
ARNT-TACC3 inh: disruptors of ARNT/TACC3 protein interaction, primary screen, biochemical, AlphaScreen, single concentration. Transforming acidic coiled-coil-containing protein 3 (Homo sapiens), Q9Y6A5. AlphaScreen His-ARNT PAS-B/GST-TACC3 binding, luminescence; TACC3 fragment carries E629A point mutation. inhibition, % at 9.99 µM. 390,000 tested, 0.66% active. AID 623870, 2012;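 active = mean inhibition of replicates at least 50% and at least half of replicates each reaching 50%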;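 note: 0% = complete ARNT plus TACC3 wells and 100% = ARNT alone without TACC3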
* hit, by the source's call; · = no result given. Compounds with a hit are over-represented: about 1.3% of the library has one in this group of screens.

Letter code – A = MLL AF4-AF9 inh; B = S100A4 MyoIIA; C = E-sel inducer; D = ERAP1 HTS inh; E = UUG fidelity; F = ARNT-TACC3 inh
compound: C[C@@H]1CN([C@@H](C)CO)C(=O)Cc2cc(NS(=O)(=O)c3ccccc3)ccc2O[C@@H]1CN(C)Cc1ccc(C(=O)O)cc1
  A: -1; B: 20; C: 0; D: 2; E: ·; F: ·
compound: C[C@@H]1CN([C@H](C)CO)C(=O)c2cc(NS(=O)(=O)c3ccc(F)cc3)ccc2O[C@@H](C)CCCCO[C@H]1CN(C)S(=O)(=O)c1cccs1
  A: -4; B: 61; C: ·; D: -3; E: -1; F: -2
compound: OCCN(Cc1ccccc1)Cc1ncccc1O
  A: -45; B: 3; C: 0; D: 3; E: -10; F: 24*
compound: Oc1cccnc1CCc1ccccc1
  A: -2; B: -8; C: ·; D: 3; E: ·; F: -7
compound: C[C@@]12C(=O)N(c3cccc(Cl)c3)C(=O)N1[C@@H]1c3ccccc3OC[C@@H]1[C@H]2c1ccccc1
  A: 43*; B: 2; C: 0; D: 5; E: -13; F: -2
compound: CCOC(=O)[C@@H]1[C@H]2COc3cc(OC)ccc3[C@@H]2N2C(=O)N(c3cccc(C)c3)C(=O)[C@]12C
  A: ·; B: 87*; C: 0; D: 1; E: 0; F: 35
compound: CCOC(=O)[C@@H]1[C@H]2COc3cc(OC)ccc3[C@@H]2N2C(=O)N(c3cccc(Cl)c3)C(=O)[C@]12C
  A: ·; B: ·; C: ·; D: ·; E: -16; F: 2
compound: C[C@@H]1CN([C@@H](C)CO)C(=O)Cc2cc(NC(=O)Cn3cnnn3)ccc2O[C@H]1CN(C)Cc1ccc(-c2ccccc2)cc1
  A: 8; B: -16; C: 0; D: 0; E: 12; F: 8
compound: Cc1ccc(NCCCCO)cc1C
  A: 4; B: -24; C: 142*; D: 5; E: -9; F: 4
compound: COc1ccc(CN(C)C[C@H]2Oc3c(NC(=O)NC(C)C)cccc3C(=O)N([C@H](C)CO)C[C@H]2C)cc1
  A: -5; B: 107*; C: -2; D: -2; E: 38; F: -1

Next section.
Letter code – A = MLL AF4-AF9 inh; B = S100A4 MyoIIA; C = E-sel inducer; D = ERAP1 HTS inh; E = UUG fidelity; F = ARNT-TACC3 inh
compound: COc1ccc(NC(=O)N(C)C[C@H]2Oc3c(NC(=O)NC4CCCCC4)cccc3C(=O)N([C@@H](C)CO)C[C@H]2C)cc1
  A: 4; B: -7; C: 0; D: 5; E: ·; F: 9
compound: C[C@@H]1CN([C@@H](C)CO)C(=O)c2cccc(NC(=O)c3nc4ccccc4s3)c2O[C@H]1CN(C)Cc1ccc(C(F)(F)F)cc1
  A: -1; B: -34; C: 1; D: -1; E: -14; F: 19
compound: C[C@H](CO)N1C[C@H](C)[C@@H](CN(C)Cc2ccc(-c3ccccc3)cc2)Oc2c(NC(=O)Nc3cccc4ccccc34)cccc2C1=O
  A: ·; B: ·; C: 90*; D: ·; E: -10; F: ·
compound: CC(C)NC(=O)Nc1cccc2c1O[C@@H](CN(C)Cc1ccc(Oc3ccccc3)cc1)[C@@H](C)CN([C@H](C)CO)C2=O
  A: 4; B: 0; C: 0; D: 1; E: 8; F: 4
compound: COc1ccc(NC(=O)Nc2cccc3c2O[C@@H](CN(C)C(=O)NC2CCCCC2)[C@H](C)CN([C@H](C)CO)C3=O)cc1
  A: -3; B: -2; C: 49*; D: 0; E: 4; F: -10
compound: C[C@H]1CN([C@@H](C)CO)C(=O)c2cccc(NC(=O)c3nc4ccccc4s3)c2O[C@@H]1CN(C)Cc1ccc(C(F)(F)F)cc1
  A: -3; B: 38; C: 48*; D: -1; E: 1; F: 17
compound: C[C@H]1CN([C@@H](C)CO)C(=O)c2cccc(NC(=O)Nc3cccc4ccccc34)c2O[C@H]1CN(C)Cc1ccccc1
  A: 1; B: 13; C: 0; D: -3; E: 17; F: 7
compound: COc1cccc(NC(=O)N(C)C[C@H]2Oc3ncc(/C=C/c4ccccc4)cc3C(=O)N([C@H](C)CO)C[C@@H]2C)c1
  A: 10; B: 7; C: 0; D: 0; E: 13; F: 7
compound: CC(C)NC(=O)Nc1cccc2c1O[C@@H](CN(C)Cc1ccc(Cl)c(Cl)c1)[C@@H](C)CN([C@H](C)CO)C2=O
  A: 2; B: 16; C: 44*; D: -2; E: ·; F: 3
compound: CC(C)NC(=O)Nc1cccc2c1O[C@@H](CN(C)Cc1ccc(C(F)(F)F)cc1)[C@@H](C)CN([C@@H](C)CO)C2=O
  A: -1; B: -2; C: -6; D: 1; E: -3; F: -1

Individual results from the list.
E-sel inducer result of COc1ccc(NC(=O)Nc2cccc3c2O[C@@H](CN(C)C(=O)NC2CCCCC2)[C@H](C)CN([C@H](C)CO)C3=O)cc1 → 49*
ERAP1 HTS inh result of C[C@H]1CN([C@@H](C)CO)C(=O)c2cccc(NC(=O)c3nc4ccccc4s3)c2O[C@@H]1CN(C)Cc1ccc(C(F)(F)F)cc1 → -1

Carrying on.
Letter code – A = MLL AF4-AF9 inh; B = S100A4 MyoIIA; C = E-sel inducer; D = ERAP1 HTS inh; E = UUG fidelity; F = ARNT-TACC3 inh
compound: CC(C)NC(=O)Nc1cccc2c1O[C@@H](CN(C)Cc1ccc(C(F)(F)F)cc1)[C@H](C)CN([C@H](C)CO)C2=O
  A: 2; B: -15; C: 29*; D: 2; E: 0; F: 8
compound: C[C@H](CO)N1C[C@H](C)[C@@H](CN(C)C(=O)Nc2cccc3ccccc23)Oc2ccc(NC(=O)CCN3CCOCC3)cc2CC1=O
  A: 1; B: 1; C: 0; D: 4; E: ·; F: ·
compound: Cc1nnc2ccc(N3CCN(c4cccc(C(F)(F)F)c4)CC3)nn12
  A: 51*; B: 13; C: 1; D: 3; E: -22; F: 1
compound: COc1ccccc1N1CCN(Cc2cn[nH]c2-c2ccc(F)cc2)CC1
  A: 53*; B: 3; C: ·; D: -5; E: -2; F: -4
compound: CCOC(=O)Cc1nnc(NC(=O)C(CC)Sc2nncn2C)s1 (stereo not drawn)
  A: -1; B: -2; C: 0; D: -3; E: -22; F: -2
compound: CCOC(=O)Cc1nnc(NC(=O)C(CC)Sc2nc(C)cc(=O)[nH]2)s1 (stereo not drawn)
  A: -7; B: -3; C: 3; D: -1; E: 11; F: 45*
compound: Cc1ccc(SC(C)C(=O)NCc2ccncc2)cc1 (stereo not drawn)
  A: -1; B: -4; C: -2; D: 82*; E: -16; F: -5
compound: N#Cc1c(=O)c2nc(NCc3ccccc3)ncc2n2ccccc12
  A: ·; B: ·; C: -2; D: ·; E: -24; F: 53*
compound: CC1(C)C[C@H](O)[C@]2(CO)[C@H](O)C[C@]3(C)C(=CCC4[C@@]5(C)CC[C@H](O)C(C)(C)C5CC[C@]43C)[C@@H]2C1 (stereo partly drawn)
  A: 46*; B: 0; C: 0; D: -2; E: -16; F: -4
compound: CCOC(=O)c1ccc(N=c2scc(C)n2CC)cc1
  A: 26*; B: -1; C: ·; D: 9; E: -22; F: ·

The closing 2 compounds of the section before lead into the next:
Letter code – A = MLL AF4-AF9 inh; B = S100A4 MyoIIA; C = E-sel inducer; D = ERAP1 HTS inh; E = UUG fidelity; F = ARNT-TACC3 inh
compound: CC1(C)C[C@H](O)[C@]2(CO)[C@H](O)C[C@]3(C)C(=CCC4[C@@]5(C)CC[C@H](O)C(C)(C)C5CC[C@]43C)[C@@H]2C1 (stereo partly drawn)
  A: 46*; B: 0; C: 0; D: -2; E: -16; F: -4
compound: CCOC(=O)c1ccc(N=c2scc(C)n2CC)cc1
  A: 26*; B: -1; C: ·; D: 9; E: -22; F: ·
compound: Cc1noc(C)c1NC(=O)Nc1ccc2c(c1)C(=O)N([C@@H](C)CO)C[C@@H](C)[C@@H](CN(C)C(=O)Nc1ccccc1)OCCCC[C@@H](C)O2
  A: -2; B: 9; C: 0; D: -1; E: 15; F: -5
compound: C/C(=N\Nc1nc2ccccc2s1)c1cccs1
  A: 13; B: -4; C: 0; D: 4; E: -50; F: 17
compound: CC(=NNc1nc2ccccc2o1)c1ncccn1
  A: 13; B: -2; C: 0; D: 10; E: ·; F: 62*
compound: CC(=NNc1nc2ccccc2s1)c1ncccn1
  A: 1; B: -4; C: ·; D: 1; E: ·; F: 63*
compound: Cc1noc(C)c1S(=O)(=O)Nc1ccc2c(c1)C(=O)N([C@@H](C)CO)C[C@@H](C)[C@@H](CN(C)Cc1ccc(C(=O)O)cc1)OCCCC[C@@H](C)O2
  A: -12; B: 7; C: 0; D: -4; E: 5; F: -4
compound: CCOC(=O)/C(=C/C=C1\Sc2cc(OCC)c(OCC)cc2N1CC)C(C)=O
  A: 4; B: -60; C: ·; D: -7; E: ·; F: 51*
